This experiment has as its target acetylcholinesterase (Homo sapiens, UniProt P22303). Format: biochemical.

Sequences of proteins named here, by UniProt entry; tags and fusion partners are left off. Residues count along the entry.
UniProt P22303, 32-614: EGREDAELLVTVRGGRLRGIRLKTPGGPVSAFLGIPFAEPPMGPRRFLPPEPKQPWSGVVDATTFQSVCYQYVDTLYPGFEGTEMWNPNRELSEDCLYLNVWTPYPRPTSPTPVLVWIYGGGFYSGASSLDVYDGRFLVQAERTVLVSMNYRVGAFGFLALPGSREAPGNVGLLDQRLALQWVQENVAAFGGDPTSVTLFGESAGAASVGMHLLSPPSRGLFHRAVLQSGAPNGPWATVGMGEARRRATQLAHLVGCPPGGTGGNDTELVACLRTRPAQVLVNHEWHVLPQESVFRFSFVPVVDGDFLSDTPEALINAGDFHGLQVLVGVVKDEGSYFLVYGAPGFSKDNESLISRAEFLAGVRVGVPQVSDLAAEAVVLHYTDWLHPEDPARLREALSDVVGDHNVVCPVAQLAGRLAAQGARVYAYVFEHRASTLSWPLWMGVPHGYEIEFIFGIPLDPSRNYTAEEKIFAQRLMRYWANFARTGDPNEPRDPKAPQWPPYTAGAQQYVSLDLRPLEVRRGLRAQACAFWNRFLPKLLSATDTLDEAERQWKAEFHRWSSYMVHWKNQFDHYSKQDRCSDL

“And” between values parts separate entries of the source, which are not always exact repeats. Identical values can stand only once. Like-named read-outs stand apart in the source and are kept apart here.

On to `C[n+]1ccccc1C=NO` [2-pralidoxime], for which the Reactivation efficiency was 45±2% and 87±5%. Further, under “after inhibition with 0.75 μM paraoxon, 2-pralidoxime 100 μM”, the Reactivation efficiency came out at 76±3%.
